Laboratory results as given in EP4847503A1, “TETRAZOLE COMPOUND, PHARMACEUTICAL COMPOSITION THEREOF AND USE THEREOF” (dated 2026).
pIC50: −log10 of the molar value.

Sequences of proteins named here, by UniProt entry; tags and fusion partners are left off.
UniProt P50052, whole entry: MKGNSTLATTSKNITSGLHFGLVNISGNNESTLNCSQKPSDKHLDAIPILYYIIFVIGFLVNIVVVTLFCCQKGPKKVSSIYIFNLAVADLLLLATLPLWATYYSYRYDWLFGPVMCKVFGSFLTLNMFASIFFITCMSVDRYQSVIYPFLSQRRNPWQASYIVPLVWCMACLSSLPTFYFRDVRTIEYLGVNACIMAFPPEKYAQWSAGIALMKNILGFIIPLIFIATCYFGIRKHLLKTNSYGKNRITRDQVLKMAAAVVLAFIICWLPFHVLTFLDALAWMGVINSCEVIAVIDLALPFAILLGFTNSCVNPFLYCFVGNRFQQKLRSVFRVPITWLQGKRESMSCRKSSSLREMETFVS

Experiments:
[1] = molecular target: AT2 receptor (Homo sapiens, UniProt P50052); assay: AT2R Binding assay (Tag-lite HTRF, affinity for AT2 receptor); conditions: read-out: AT2R IC50; Tag-lite Angiotensin AT2 labeled Cells, 25 °C, 1 hour
Protocol: Test Example 1 Determination of the affinity of the test compounds for AT2 receptor by AT2R Binding assay
1. Reagent preparation • 1.1 Cell line: Tag-lite Angiotensin AT2 labeled Cells; • 1.2 Assay buffer: 1X TLB (5 mL 5X TLB + 20 mL H2O); 2. Activity assay of the test compounds • 2.1 1X TLB assay buffer, 4X working solutions of the test compounds, and 4X Tag-lite angiotensin receptor red agonist (Cisbio, L0007RED) were prepared; • 2.2 One vial of labeled-AT2R cells was thawed in a water bath at 37 °C until the ice completely melted (1-2 min). The thawed cells were quickly transferred to 5 mL of 1X TLB, mixed gently, and centrifuged at 200 g for 5 min; • 2.3 The supernatant was discarded, and the cells were resuspended and mixed with 1 mL of 1X TLB. Then, 1.7 mL of 1X TLB was added and mixed, and the mixture was kept at room temperature for later use; • 2.4 10 µL of cells were added to a 384-well plate (Greiner, 784075) and centrifuged at 200 g at RT for 3 s; 5 µL of the 4X compound was added to the 384-well plate; 5 µL of the 4X Tag-lite angiotensin receptor red agonist was added to all test wells; • 2.5 The reaction plate was left to stand at room temperature of 25 °C for 1 hour, and then centrifuged at 200 g, RT for 60 s. Data was collected using an Envision HTRF detector. 3. Data analysis • 3.1 Calculation of % inhibition: [formula] • 3.2 Calculation of compound IC50 using GraphPad non-linear fitting formula: Y = Bottom + (Top-Bottom)/(1+10^(∧)((LogIC50-X)*HillSlope)) [formula] • X: log value of compound concentration; Y: % inhibition 4. Experimental results

[2] = Pharmacokinetic behavior in mice; conditions: ICR mice
Protocol: Test Example 3 Study on the pharmacokinetic behavior of the compounds of the present invention in mice
(§1) Healthy ICR mice (SPF grade, source: Beijing Vital River Laboratory Animal Technology Co., Ltd.), 3 animals, male, weighing 18-25 g, were intravenously injected with 1 mg/kg of the compound at a dosing volume of 5 mL/kg, formulated with 5% DMSO + 10% Solutol + 85% Saline (w/v). Animals were fasted prior to the test.
as §1, with “were intragastrically administered” for “were intravenously injected”, “with 5” for “with 1”, “of 10” for “of 5”
(§2) Blood samples (approx. 0.05 mL each) were collected via the cheek at 5 min, 15 min, 30 min, 1 h, 2 h, 4 h, 6 h, 8 h, and 24 h after intravenous administration, and at 5 min, 15 min, 30 min, 1 h, 2 h, 4 h, 6 h, 8 h, and 24 h after intragastric administration, respectively, using sodium heparin as an anticoagulant. After collection, the blood samples were placed on ice, and the plasma was separated by centrifugation within 1 hour (centrifugation conditions: 6000 g, 3 minutes, 2-8 °C). The concentration of the compound in plasma was determined by liquid chromatography-tandem mass spectrometry. Plasma samples were stored in a -80 °C freezer before analysis. Pharmacokinetic parameters were calculated using Phoenix WinNonlin 8.2.0 based on plasma concentration data at different time points.

[3] = molecular target: AT1 receptor (Homo sapiens, UniProt P30556); assay: AT1R Binding assay (Tag-lite HTRF, affinity for AT1 receptor); conditions: read-out: AT1R IC50; Tag-lite Angiotensin AT1 labeled Cells, 25 °C, 1 hour
Protocol: Test Example 2 Determination of the affinity of the test compounds for AT1 receptor by AT1R Binding assay
1 Reagent preparation • 1) Cell line: Tag-lite Angiotensin AT1 labeled Cells; • 2) Assay buffer: 1X TLB (5 mL 5X TLB + 20 mL H2O); 2 Inhibitory activity assay of the test compounds • 1) 1X TLB assay buffer, 4X working solutions of the test compounds, and 4X Tag-lite angiotensin receptor red agonist (Cisbio, L0007RED) were prepared; • 2) One vial of labeled-AT1R cells was thawed in a water bath at 37 °C until the ice completely melted (1-2 min). The thawed cells were quickly transferred to 5 mL of 1X TLB, mixed gently, and centrifuged at 200 g for 5 min; • 3) The supernatant was discarded, and the cells were resuspended and mixed with 1 mL of 1X TLB. Then, 1.7 mL of 1X TLB was added and mixed, and the mixture was kept at room temperature for later use; • 4) 10 µL of cells were added to a 384-well plate (Greiner, 784075) and centrifuged at 200 g at RT for 3 s; 5 µL of the 4X compound was added to the 384-well plate; 5 µL of the 4X Tag-lite angiotensin receptor red agonist was added to all test wells; • 5) The reaction plate was left to stand at room temperature of 25 °C for 1 hour, and then centrifuged at 200 g, RT for 60 s. Data was collected using an Envision HTRF detector. […]

[4] = Pharmacokinetic behavior in rats; conditions: SD rats
Protocol: Test Example 4 Study on the pharmacokinetic behavior of the compounds of the present invention in rats
(§3) Healthy SD rats (SPF grade, source: Beijing Vital River Laboratory Animal Technology Co., Ltd.), 3 animals, male, weighing 180-250 g, were intravenously injected with 1 mg/kg of the compound at a dosing volume of 2 mL/kg. The compound was formulated with 5% DMSO + 10% Solutol + 85% Saline (w/v), and the animals were not fasted prior to the test.
as §3, with “were intragastrically administered” for “were intravenously injected”, “with 5” for “with 1”, “of 10” for “of 2”
as §2, with “0.25” for “0.05”, “vein” for “cheek”

[5] = intragastric administration 5 mg/kg

With `CC(C)Cc1cc(Nc2cnn(C)c2)c(-c2nn[nH]n2)c(N2CCN(Cc3cccnn3)[C@@H](C)C2)c1` the pIC50 [1] was 8.37, the AUClast [2, 5] was 6812 ng·h/mL and the Cmax [2, 5] was 4870 ng/mL. The T1/2 [2, 5] was 1.90 h, the AUClast ([2]; intravenous injection 1 mg/kg) was 1006 ng·h/mL and the CL ([2]; intravenous injection 1 mg/kg) was 17.3 mL/min/kg. For the same compound, the Cmax ([2]; intravenous injection 1 mg/kg) was 1470 ng/mL, the Vss ([2]; intravenous injection 1 mg/kg) was 0.873 L/kg and the pIC50 [3] was under 6.00. The AUClast [4, 5] was 6269 ng·h/mL, the Cmax [4, 5] was 1637 ng/mL and the T1/2 [4, 5] was 4.06 h. The “F(%)” value ([4]; intragastric administration 5 mg/kg vs intravenous 1 mg/kg) was 49.5%, the AUClast ([4]; intravenous injection 1 mg/kg) was 2533 ng·h/mL and the Cmax ([4]; intravenous injection 1 mg/kg) was 2074 ng/mL. For the same compound, the Vss ([4]; intravenous injection 1 mg/kg) was 1.01 L/kg.
